Assay outcomes: PubChem BioAssay, Broad Institute
A selection: hits, their analogues and other compounds. The true share with any hit is near 2.2%.
FGF22 binding = shifts melting point of recombinant human FGF22; Q9HCT0; recombinant FGF22 thermal shift, SYPRO orange fluorescence; percent of sucrose octasulfate shift, DMSO zero; activity (Tm shift, normalised), % at 9.99 µM; hit rate 1.5% among 340,000;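 active means mean Tm shift, scaled 0 neutral to 100 positive control, at about 1.3% or above, every replicate too, limit read from the data; inconclusive means no clear call, values can overlap the other calls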
SIRT5 block = inhibitors of human sirtuin-5 desuccinylase. Q9NXA8. Purified SirT5, succinyl-peptide AMC, trypsin-coupled fluorescence. inhibition, % at 15 µM. hit rate 1.1% among 330,000; in the data active means inhibition above about 15%; inconclusive means no clear call, values can overlap the other calls
Yeast UUG start = yeast start codon fidelity modulation | S. cerevisiae UUG-firefly luciferase reporter, luminescence/redox ratio | activity score, % at 18.7 µM | hit rate 0.13% among 350,000 | AID 602363;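 active means replicate mean at a twofold rise or more, about +100% in these data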;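 further: firefly luciferase made from a UUG start codon reports start codon fidelity; reporter light over untreated wells divided by growth signal over untreated wells; some hits fall short of that in this replicate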
ERp5 inh = ERp5 (human) disulfide isomerase inhibition | hit rate 0.05% among 350,000 | AID 651711 | ERp5 insulin aggregation, absorbance 650 nm, 90 min | Q15084 | inhibition, % at 9.99 µM;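 active means mean replicate inhibition above about 25%, with every replicate also reaching it, limit read from the data, passing the limit was not always enough; inconclusive means only one of those two criteria met; inactive means neither criterion met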
S100A4 inh HTS = inhibitors of human S100A4 binding to myosin IIA peptide; P26447; S100A4/TAMRA-MyoIIA peptide fluorescence polarization; inhibition, % at 10.7 µM; hit rate 0.14% among 360,000;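 active means mean inhibition of at least 70% across replicates, with every replicate also reaching that level; inconclusive means mean inhibition reaches 70% but some replicates fall short; inactive means mean inhibition below 70%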
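assay system = human S100A4 monomer with TAMRA-labelled myosin IIA peptide | also added = labelled myosin peptide probe, 5 nM | incubation = 5 min between mix addition and reading | control set = DMSO and TFP controls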
PDI turbidity = inhibitors of human protein disulfide isomerase; PDI insulin aggregation turbidity, A650, 90 min; P07237; inhibition, % at 10 µM; hit rate 0.052% among 350,000;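 active means mean inhibition across replicates of 30% or more, whatever share of single replicates reach that level; inconclusive means mean inhibition below 30% while every single replicate reaches 30%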
Active calls of the source: *; ? = inconclusive; · = no result given.

molecule,Yeast UUG start,ERp5 inh,S100A4 inh HTS,PDI turbidity,FGF22 binding,SIRT5 block
CCC(=O)Nc1cc(C(=O)O)ccc1Sc1ccc(Cl)cc1,-11.4,3.5,-1.1,-1.1,44.0*,-3.4
COc1cc(C(=O)NCC2(N(C)C)CCCCC2)ccc1OCc1ccccc1,5.3,-0.7,-1.1,-10.6,41.3,64.7*
CCN(CC)C(=O)C1=C(C)N(Cc2ccccc2)C(=O)C(CC(=O)NCc2ccco2)C1 (stereo not drawn),-3.2,4.8,?,-1.3,43.1*,·
CCCCN1C(=O)C(CC(=O)NCCCN(C)C)CC(C(=O)N(C(C)C)C(C)C)=C1C (stereo not drawn),·,1.8,6.4,·,0.1,·
CC1=C(C(=O)N(C(C)C)C(C)C)CC(CC(=O)NCCCN(C)C)C(=O)N1CCC1=CCCCC1 (stereo not drawn),-0.1,-4.4,-1.5,·,0.0,22.6*
CCCCN1C(=O)C(CC(=O)NCCCN(C)C)CC(C(=O)N(CC)CC)=C1C (stereo not drawn),-6.8,-3.4,8.4,5.8,43.4*,·
CCCCN1C(=O)C(CC(=O)NCc2ccco2)CC(C(=O)N(C)C)=C1C (stereo not drawn),3.8,7.8,-1.6,16.2,0.1,2.7
CCCCN1C(=O)C(CC(=O)NCc2ccco2)CC(C(=O)N(CC)CC)=C1C (stereo not drawn),-6.9,1.7,-1.4,-2.4,43.4*,·
C[C@H]1CCCCO[C@H](CN(C)C(=O)NC2CCCCC2)[C@@H](C)CN([C@@H](C)CO)C(=O)c2cc(NC(=O)CCCN(C)C)ccc2O1,8.0,-2.3,14.0,·,-0.2,-1.5
CCCNC(=O)NC[C@@H]1CC[C@H]2[C@H](CN2C(=O)C2CCOCC2)O1,·,-4.8,4.8,·,·,-5.3
CC1=C(C(=O)N(C(C)C)C(C)C)CC(CC(=O)NCc2ccco2)C(=O)N1Cc1ccccc1 (stereo not drawn),19.5,10.1,-0.3,·,0.0,-2.8
CC1=C(C(=O)N(C)C)CC(CC(=O)NCc2ccco2)C(=O)N1Cc1ccccc1 (stereo not drawn),-5.7,3.1,-3.1,-4.1,-0.4,16.0*
O=C(C[C@H]1CC[C@H](NC(=O)C2CCOCC2)[C@H](CO)O1)Nc1ccccc1,·,1.4,-2.9,·,·,-2.5
COc1ccc(S(=O)(=O)N2CCCOC2CNC(=O)C(=O)NCCCn2ccnc2)cc1 (stereo not drawn),37.2,2.4,-1.2,-8.1,44.0*,1.1
COc1cccc(NC(=O)C(=O)NCCCn2ccnc2)c1,·,3.5,-5.1,-3.1,43.3*,-0.1
CCCCCOc1ccc(NC(=O)C(=O)NCCCn2ccnc2)cc1,-16.0,·,·,-4.9,·,·
COc1ccc(S(=O)(=O)N2CCCOC2CNC(=O)C(=O)NCc2ccco2)cc1C (stereo not drawn),-6.3,1.0,-4.1,-4.2,44.1*,-3.0
CN(C)C(=O)C[C@@H]1C[C@H]2c3cc(NS(=O)(=O)c4ccccc4)ccc3O[C@H]2[C@@H](CO)O1,-14.5,0.2,-0.7,·,0.0,-3.8
CC(C)NC(=O)Nc1ccc2c(c1)C(=O)N([C@H](C)CO)C[C@@H](C)[C@H](CN(C)S(=O)(=O)c1ccc(F)cc1)OCCCC[C@@H](C)O2,5.8,-3.9,-4.0,·,0.0,-4.7
CCOC(=O)N1CCN(C(=O)c2cc(COc3ccc4ncccc4c3)on2)CC1,-18.1,0.5,0.2,-3.0,0.2,20.2*
COc1ccc(C)cc1NS(=O)(=O)c1cn(C)nc1C,·,-60.9,-1.0,-4.3,43.1*,-2.5
COc1ccc(C)cc1NS(=O)(=O)c1ccc2c(c1)N(C)CCO2,-2.9,-4.3,83.8*,-3.6,0.0,-0.5
COc1ccc(C)cc1NS(=O)(=O)c1ccc2c(c1)n(C)c(=O)n2C,4.7,-4.1,5.8,-0.8,0.5,-1.4
CCOc1cc(CNCC(C)C)cc(Cl)c1OCc1ccccc1,·,5.1,-1.6,6.7,43.8*,-5.3
CCOc1c(Cl)cc(CNCC(C)C)cc1OC,·,·,·,-9.6,·,·
Cc1noc(C)c1NC(=O)Nc1cccc2c1O[C@@H](CN(C)CC1CCCCC1)[C@@H](C)CN([C@H](C)CO)C2=O,9.9,0.9,-7.7,·,0.2,-15.4
Cc1ccc([N+](=O)[O-])cc1S(=O)(=O)n1ccnc1C,·,-0.4,2.9,6.7,43.5*,-1.2
COCc1[nH][nH]c(=O)c1/C=N/N1CCOCC1,·,-4.6,11.1,-6.6,43.8*,-0.1

In the list so far, these have a Cl atom.
molecule,Yeast UUG start,ERp5 inh,S100A4 inh HTS,PDI turbidity,FGF22 binding,SIRT5 block
CCC(=O)Nc1cc(C(=O)O)ccc1Sc1ccc(Cl)cc1,-11.4,3.5,-1.1,-1.1,44.0*,-3.4
CCOc1cc(CNCC(C)C)cc(Cl)c1OCc1ccccc1,·,5.1,-1.6,6.7,43.8*,-5.3
CCOc1c(Cl)cc(CNCC(C)C)cc1OC,·,·,·,-9.6,·,·
